# Assay results as given in IntAct's records for PubMed 19864627.
# B1: Transcription factor p65 (Homo sapiens), Q04206 (parent)
# chain: MDELFPLIFPAEPAQASGPYVEIIEQPKQRGMRFRYKCEGRSAGSIPGERSTDTTKTHPTIKINGYTGPGTVRISLVTKDPPHRPHPHELVGKDCRDGFYEAELCPDRCIHSFQNLGIQCVKKRDLEQAISQRIQTNNNPFQVPIEEQRGDYDLNAVRLCFQVTVRDPSGRPLRLPPVLSHPIFDNRAPNTAELKICRVNRNSGSCLGGDEIFLLCDKVQKEDIEVYFTGPGWEARGSFSQADVHRQVAIVFRTPPYADPSLQAPVRVSMQLRRPSDRELSEPMEFQYLPDTDDRHRIEEKRKRTYETFKSIMKKSPFSGPTDPRPPPRRIAVPSRSSASVPKPAPQPYPFTSSLSTINYDEFPTMVFPSGQISQASALAPAPPQVLPQAPAPAPAPAMVSALAQAPAPVPVLAPGPPQAVAPPAPKPTQAGEGTLSEALLQLQFDDEDLGALLGNSTDPAVFTDLASVDNSEFQQLLNQGIPVAPHTTEPMLMEYPEAITRLVTGAQRPPDPAPAPLGAPGLPNGLLSGDEDFSSIADMDFSALLSQISS
# partner: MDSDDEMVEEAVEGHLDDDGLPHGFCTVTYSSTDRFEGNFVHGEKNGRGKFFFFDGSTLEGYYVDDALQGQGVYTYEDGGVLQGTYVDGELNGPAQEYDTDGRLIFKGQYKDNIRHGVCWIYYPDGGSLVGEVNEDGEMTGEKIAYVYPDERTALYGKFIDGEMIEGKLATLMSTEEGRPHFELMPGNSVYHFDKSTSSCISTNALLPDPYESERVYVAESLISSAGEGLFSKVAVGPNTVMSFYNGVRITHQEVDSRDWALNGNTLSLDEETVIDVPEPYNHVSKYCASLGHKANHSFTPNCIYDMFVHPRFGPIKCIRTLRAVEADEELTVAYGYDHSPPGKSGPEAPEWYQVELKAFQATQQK
# Variants of: B1
# Details: with setd7_human SETD7, Q8WTS6
row,effect of a mutation on the interaction,Variant
1,disrupting interaction,MDELFPLIFPAEPAQASGPYVEIIEQPKQRGMRFRYRCEGRSAGSIPGERSTDTTKTHPTIKINGYTGPGTVRISLVTKDPPHRPHPHELVGKDCRDGFYEAELCPDRCIHSFQNLGIQCVKKRDLEQAISQRIQTNNNPFQVPIEEQRGDYDLNAVRLCFQVTVRDPSGRPLRLPPVLSHPIFDNRAPNTAELKICRVNRNSGSCLGGDEIFLLCDKVQKEDIEVYFTGPGWEARGSFSQADVHRQVAIVFRTPPYADPSLQAPVRVSMQLRRPSDRELSEPMEFQYLPDTDDRHRIEEKRKRTYETFKSIMKKSPFSGPTDPRPPPRRIAVPSRSSASVPKPAPQPYPFTSSLSTINYDEFPTMVFPSGQISQASALAPAPPQVLPQAPAPAPAPAMVSALAQAPAPVPVLAPGPPQAVAPPAPKPTQAGEGTLSEALLQLQFDDEDLGALLGNSTDPAVFTDLASVDNSEFQQLLNQGIPVAPHTTEPMLMEYPEAITRLVTGAQRPPDPAPAPLGAPGLPNGLLSGDEDFSSIADMDFSALLSQISS [K37R]
